{"source": "patent US20200316038A1", "about": "“METHODS AND COMPOSITIONS FOR TREATING UREA CYCLE DISORDERS, IN PARTICULAR OTC DEFICIENCY” (CAMP4 THERAPEUTICS CORPORATION, priority 2017, published 2020)", "assay_type_in_all_cases": "cell-based", "key": {"[1]": {"system": "SLC25A15", "experiment": "RNA-seq, SLC25A15 expression in compound-treated primary human hepatocytes", "conditions": "compounds that significantly increase SLC25A15 expression"}, "[2]": {"system": "CPS1", "experiment": "RNA-seq, CPS1 expression in compound-treated primary human hepatocytes"}, "[3]": {"system": "ARG1", "experiment": "RNA-seq, ARG1 expression in compound-treated primary human hepatocytes", "conditions": "compounds that significantly increase ARG1 expression"}}, "data": [{"substance": "GZD824 Dimesylate", "values": [{"measurement": "SLC25A15 expression, Fold change (Log 2) vs untreated", "setting": "[1]", "value": 0.73, "unit": "Log 2"}, {"measurement": "Fold change (Log 2) vs untreated", "setting": "[2]", "value": 3.39, "unit": "Log 2"}, {"measurement": "ARG1 expression, Fold change (Log 2) vs untreated", "setting": "[3]", "value": 1.06, "unit": "Log 2"}]}]}
